Laboratory results: US20040023951A1, “Combination therapy for treatment of psychoses” (priority 2002, published 2004)

Tested on: Rats
Experiment: Conditioned avoidance behavior in rats
Type: in vivo, rat
Excerpt: Conditioned Avoidance Behavior in Rats:
In a conditioned avoidance test, animals learn to respond during a conditioned stimulus in order to avoid mild shock presentation. A response during the conditioned stimulus is termed an avoidance response, a response during shock is termed an escape response; a response failure is when the animal fails to respond during either the conditioned stimulus or the shock presentation and is indicative of motor impairment. […] Antipsychotic drugs decrease the percentage of avoidance responses without interfering with the ability of the animal to respond since the animals do emit escape responses. The percentage of response failures is considered a measure of motor impairment.
Rats were required to press a response lever in an experimental chamber in order to avoid or escape foot-shock. Each experimental session consisted of 50 trials. During each trial, the chamber was illuminated and a tone presented for a maximum of 10 sec. A response during the tone immediately terminated the tone and the houselight, ending the trial. In the absence of a response during the tone alone, tone+foot-shock (2.0 mA) was presented for a maximum of 10 sec. A response during shock presentation immediately terminated the shock, the tone and the houselights ending the trial.
If the effects are simply additive the results will be additive. If the effects of are synergistic, then the dose of second component required to produce full efficacy will be decreased.

[1] = first component dose 0.01 in combination with Xanomeline dose 10
[2] = first component dose 0.03 in combination with Xanomeline dose 10

Structure (SMILES) | % Response Failures ± SEM [1] [%] | % Response Failures ± SEM [2] [%] | % Response Failures ± SEM (first component dose 0.1 in combination with Xanomeline dose 10) [%] | % Response Failures ± SEM (first component dose 0.3 in combination with Xanomeline dose 10) [%] | % Response Failures ± SEM (first component dose 1.0 in combination with Xanomeline dose 10) [%] | % Response Failures ± SEM (given alone, dose 1) [%] | % Response Failures ± SEM (given alone, dose 3) [%] | % Response Failures ± SEM (given alone, dose 10) [%] | % Response Failures ± SEM (first component dose 0.001 in combination with Xanomeline dose 10) [%] | % Response Failures ± SEM (first component dose 0.003 in combination with Xanomeline dose 10) [%] | % Response Failures ± SEM (given alone, dose 0.03 (dose unit not given), measure of motor impairment) [%] | % Response Failures ± SEM (given alone, dose 0.1) [%] | % Response Failures ± SEM (given alone, dose 0.3) [%]
Cc1cc2c(s1)Nc1ccccc1N=C2N1CCN(C)CC1 [Olanzapine, 2-methyl-4-(4-methyl-1-piperazinyl)-10H-thieno[2,3-b][1,5]benzodiazepine] | 1 ± 1 | 0 ± 0 | 0 ± 0 | 17 ± 10 | 6 ± 5 | 0 ± 0 | 1 ± 1 | 5 ± 3 |  |  |  |  | 
Cc1nc2n(c(=O)c1CCN1CCC(c3noc4cc(F)ccc34)CC1)CCCC2 [Risperidone, 3-[2-[4-(6-fluoro-1,2-benzisoxazol-3-yl)piperidino]ethyl]-2-methyl-6,7,8,9-tetrahydro-4H-pyrido[1,2-a]pyrimidin-4-one] | 0 ± 0 | 7 ± 4 |  |  |  | 38 ± 9 |  |  | 0 ± 0 | 2 ± 1 | 0 ± 0 | 0 ± 0 | 2 ± 2
